{"source": "patent US5236931A", "about": "“2-substituted benzamide and benzoate derivatives of 3-aminoquinuclidine and 3-quinuclidinol” (priority 1992, dated 1993)", "key": {"[1]": {"test_system": "serotonin induced bradycardia (von Bezold-Jarisch reflex)", "assay": "Antagonism of the von Bezold-Jarisch Reflex (serotonin induced bradycardia in rats)", "conditions": "rat, 0.0316 mg/kg IV"}, "cisplatin-induced emesis": {"test_system": "cisplatin-induced emesis", "assay": "Effect on Cisplatin-induced Emesis in Dogs", "conditions": "dog, 1.0 mg/kg IV; cisplatin 3.0 mg/kg IV"}, "[2]": {"test_system": "gastric emptying of a test meal", "assay": "Effect on Gastric Emptying of a Test Meal in Rats", "format": "in vivo", "conditions": "rat"}}, "data": [{"compound": "COCCOc1cc(N)c(Cl)cc1C(=O)OC1CN2CCC1CC2", "note": "(centres unmarked)", "values": [{"measurement": "reduction of 5-HT induced bradycardia", "setting": "[1]", "value": 70, "unit": "%"}, {"measurement": "% inhibition of cisplatin-induced emesis", "setting": "cisplatin-induced emesis", "value": 93, "unit": "%"}, {"measurement": "Gastric emptying: % change in meal emptied", "setting": "[2]; 9.0 mg/kg IP", "value": 21, "unit": "%"}]}, {"compound": "CSCCOc1cc(N)c(Cl)cc1C(=O)OC1CN2CCC1CC2", "note": "(centres unmarked)", "values": [{"measurement": "% inhibition of cisplatin-induced emesis", "setting": "cisplatin-induced emesis", "value": 75, "unit": "%"}, {"measurement": "Gastric emptying: % change in meal emptied", "setting": "[2]; 9.0 mg/kg IP", "value": 40, "unit": "%"}]}, {"compound": "C=CCOc1cc(N)c(Cl)cc1C(=O)OC1CN2CCC1CC2", "note": "(centres unmarked)", "values": [{"measurement": "Gastric emptying: % change in meal emptied", "setting": "[2]; 10 mg/kg IP", "value": 63, "unit": "%"}]}, {"compound": "C=CCNc1cc(OCC=C)c(C(=O)OC2CN3CCC2CC3)cc1Cl", "note": "(centres unmarked)", "values": [{"measurement": "% inhibition of cisplatin-induced emesis", "setting": "cisplatin-induced emesis", "value": 94, "unit": "%"}, {"measurement": "Gastric emptying: % change in meal emptied", "setting": "[2]; 9.0 mg/kg IP", "value": 24, "unit": "%"}]}]}
